According to patent US7196110B2, “N-substituted tricyclic 3-aminopyrazoles as inhibitors for the treatment of cell proliferative disorders” (Janssen Phamaceutica N.V., priority 2002, dated 2007):
pIC50: −log10 of the molar value.

Chains of the proteins cited; added tags and fusions are not shown. Lines headed by an entry give the natural chain unless they say otherwise; changes in a name come on top.
UniProt P09619: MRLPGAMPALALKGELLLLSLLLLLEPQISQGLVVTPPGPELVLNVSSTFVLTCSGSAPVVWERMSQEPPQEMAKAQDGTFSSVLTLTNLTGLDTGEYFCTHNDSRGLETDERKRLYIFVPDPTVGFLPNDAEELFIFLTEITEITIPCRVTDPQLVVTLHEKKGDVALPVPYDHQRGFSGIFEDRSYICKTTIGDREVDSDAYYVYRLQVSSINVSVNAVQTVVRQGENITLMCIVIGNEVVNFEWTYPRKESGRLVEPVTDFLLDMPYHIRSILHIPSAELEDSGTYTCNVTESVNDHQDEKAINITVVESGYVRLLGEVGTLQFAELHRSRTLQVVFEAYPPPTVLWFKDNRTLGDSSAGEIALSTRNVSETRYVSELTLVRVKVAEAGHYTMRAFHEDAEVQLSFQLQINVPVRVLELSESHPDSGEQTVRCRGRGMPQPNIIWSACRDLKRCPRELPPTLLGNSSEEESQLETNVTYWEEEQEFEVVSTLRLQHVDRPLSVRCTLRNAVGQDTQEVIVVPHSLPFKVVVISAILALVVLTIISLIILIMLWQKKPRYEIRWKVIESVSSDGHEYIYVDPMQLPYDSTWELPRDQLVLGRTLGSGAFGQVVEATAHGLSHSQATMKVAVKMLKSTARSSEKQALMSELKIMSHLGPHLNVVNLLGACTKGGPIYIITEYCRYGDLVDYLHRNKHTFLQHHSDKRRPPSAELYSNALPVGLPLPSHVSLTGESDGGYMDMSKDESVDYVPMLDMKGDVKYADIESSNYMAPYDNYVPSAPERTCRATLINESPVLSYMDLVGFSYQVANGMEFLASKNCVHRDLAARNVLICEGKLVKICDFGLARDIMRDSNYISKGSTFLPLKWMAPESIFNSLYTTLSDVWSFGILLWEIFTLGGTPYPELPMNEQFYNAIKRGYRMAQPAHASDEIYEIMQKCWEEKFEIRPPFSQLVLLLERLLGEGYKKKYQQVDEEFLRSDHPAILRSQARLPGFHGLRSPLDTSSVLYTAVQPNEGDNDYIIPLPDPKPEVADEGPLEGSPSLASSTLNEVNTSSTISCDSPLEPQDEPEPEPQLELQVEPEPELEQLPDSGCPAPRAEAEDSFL

Target: T1, PDGF-receptor beta enzyme comprising the tyrosine kinase domain (Homo sapiens, UniProt P09619)
T1 construct: from amino acid 545 to 1106 of GenBank Access NO: AAA36427
Assay: Inhibition of PDGF-receptor kinase activity (cell-free, PLC1 peptide, 33P Flashplate)
Assay type: biochemical
Conditions: PDGF-R kinase activity

Structure (SMILES) | pIC50
COc1cccc(Nc2[nH]nc3c2Cc2cc(OC)c(OC)cc2-3)c1 [Compound 29, (6,7-Dimethoxy-2,4-dihydro-indeno[1,2-c]pyrazol-3-yl)-(3-methoxy-phenyl)-amine] | 8.00
COc1cc2c(cc1OC)-c1n[nH]c(Nc3cccc(C)c3)c1C2 [Compound 32, (6,7-Dimethoxy-2,4-dihydro-indeno[1,2-c]pyrazol-3-yl)-m-tolyl-amine] | 7.92
